Measured values as given in the OPERA property sets (Mansouri et al. 2018).

Settings: experimental values compiled from the literature

Structure (SMILES) | logP
CN(C)C(=O)Oc1cccnc1I | 1.26
CCOP(=O)(CC)SCCSCC (stereo not drawn) | 2.03
CN(C)C(=O)Oc1cccnc1Cl | 1.04
CN(C)C(=O)Oc1cccnc1Br | 1.14
CCCOP(=O)(CC)Oc1ccc([N+](=O)[O-])cc1 (stereo not drawn) | 2.2
COC1C(Cl)C(Cl)C(Cl)C(Cl)C1SC (stereo not drawn) | 3.3
CN(C)C(=O)Oc1cccnc1[N+](=O)[O-] | 0.54
CSC1C(Cl)C(Cl)C(Cl)C(Cl)C1Cl (stereo not drawn) | 3.85
